The values that follow come from article PMC11433769.

In the data set the test system is CC(=O)CCO. As to the kind of experiment: purified protein. To be noted: 0.25 mM NADH, 100 mM potassium phosphate pH 7.0, 40 °C, 0.1 μM enzyme.

Usually Km stands for the substrate concentration at which the rate is half of its maximum. Usually kcat stands for the number of substrate molecules converted per active site and unit of time at saturation. For orientation: kcat/Km means the second-order rate constant that governs catalysis at low substrate concentration. Take “ChKRED20 (Chryseobacterium sp. CA49; A150Q/A187G/A46T/E173D/G185C/G94A/H42K/I114V/I86V/Q97K/S153N/Y246N)”: the Km is reported as 92.15 ± 14.49 mM, the kcat worked out at 387 s⁻¹ and the kcat/Km stood at 4250 M⁻¹ s⁻¹.
